The test system of one assay is OCI-LY10 cells. The experiment in a line: Cell proliferation inhibition in vitro, OCI-ly10 cells by CCK-8 method. Particulars: read-out: Inhibitions of cell activities IC50 (nM) OCI-LY10, 72 hours. (Tetrazolium assays rely on reduction of a dye to a coloured formazan, in cell work by metabolically active cells.)
Another assay concerns the target BTK kinase (Homo sapiens (Human), UniProt Q06187). The experiment in a line: In vitro assay for the inhibition of BTK kinase activity (Mobility-Shift Assay). The class given is biochemical. Particulars: read-out: BTK IC50.
The subject of the next assay is DOHH2 cells. Put plainly: Cell proliferation inhibition in vitro, DOHH2 cells by CTG assay. Particulars: read-out: Inhibitions of cell activities IC50 (nM) DOHH2, 72 hours.
A further assay has as its system TMD8 cells. Put plainly: Cell proliferation inhibition in vitro, TMD8 cells by CCK-8 method. The following applies: read-out: Inhibitions of cell activities IC50 (nM) TMD8, 72 hours.

Sequences of proteins named here, by UniProt entry; tags and fusion partners are left off.
UniProt Q06187, whole entry: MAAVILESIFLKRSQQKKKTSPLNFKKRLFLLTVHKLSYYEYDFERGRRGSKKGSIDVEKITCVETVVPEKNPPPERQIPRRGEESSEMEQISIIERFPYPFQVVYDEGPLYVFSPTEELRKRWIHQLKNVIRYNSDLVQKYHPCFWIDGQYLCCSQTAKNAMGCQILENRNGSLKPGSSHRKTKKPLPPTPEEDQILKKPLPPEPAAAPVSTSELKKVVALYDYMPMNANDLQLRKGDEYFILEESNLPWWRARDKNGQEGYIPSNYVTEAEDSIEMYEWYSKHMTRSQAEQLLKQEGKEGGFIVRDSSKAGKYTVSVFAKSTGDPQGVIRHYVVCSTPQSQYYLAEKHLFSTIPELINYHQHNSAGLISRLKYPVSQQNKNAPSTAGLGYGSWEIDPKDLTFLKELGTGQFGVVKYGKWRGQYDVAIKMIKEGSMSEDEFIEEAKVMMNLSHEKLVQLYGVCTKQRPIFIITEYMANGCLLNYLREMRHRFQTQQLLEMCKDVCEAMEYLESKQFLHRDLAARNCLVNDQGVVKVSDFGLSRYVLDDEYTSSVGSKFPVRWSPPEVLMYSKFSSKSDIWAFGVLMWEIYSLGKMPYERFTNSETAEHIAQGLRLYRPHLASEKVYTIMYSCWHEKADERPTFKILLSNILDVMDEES

Two molecules from patent publication US10793576B2, “Compound used as Bruton's tyrosine kinase inhibitor and preparation method and application thereof” (Chengdu Brilliant Pharmaceutical Co., LTD., priority 2017, dated 2020) can be followed below.

By IC50 is commonly meant the concentration at which inhibition is half-maximal.

As to `CC#CC(=O)N1C[C@H]2[C@@H]([C@H]1c1nc(-c3ccc(Oc4ccccc4)cc3)c3c(N)nccn13)C2(C)C`, the IC50 with OCI-LY10 cells is 0.37 nM; at BTK kinase it was 7.2 nM; with DOHH2 cells it was 218 nM; in the assay with TMD8 cells, 6.9 nM.

On to `C=CC(=O)N1C[C@H]2[C@@H]([C@H]1c1nc(-c3ccc(Oc4ccccc4)cc3)c3c(N)nccn13)C2(C)C`, for which the IC50 came to 0.67 nM in the assay on OCI-LY10 cells, 14.3 nM on BTK kinase, 314 nM in the assay on DOHH2 cells and 7.4 nM with TMD8 cells.
